Structures can show the parent of a compound that is named as a salt.
Biological target: EGFR(D770_N771insSVD) expressing Ba/F3 stable cell line (Homo sapiens, UniProt P00533, DUP768-770, cells depend on it)
Experiment: Cellular proliferation (Alamar Blue) assay, EGFR(D770_N771insSVD) Ba/F3
Format: cell-based
Settings: 72 hr, read-out: D770 IC50
Protocol: (§1) Cell line details: • 1. EGFR(D770_N771insSVD) expressing Ba/F3 stable cell line • 2. EGFR (A767_dupASV) expressing Ba/F3 stable cell line • 3. A431 cells • 4. EGFR (H773insNPH) expressing Ba/F3 stable cell line • 5. HER2 (A775_G776insYVMA) expressing Ba/F3 stable cell line
(§2) • 1. Seed cells at 5000 for A431 and 15,000 cells for Ba/F3 in 100 μL/well in complete media (for A431: DMEM with 10% FBS and for Ba/F3 cells: RPMI with 10% FBS) in 96-well tissue culture plate. Leave outer wells without cells for background measurements. Incubate at 37 degree Celsius in 5% CO2 humidified incubator for 16-18 hours. • 2. Add 0.025 ml of 5X concentration compound dilution or DMSO control. Final compound concentration range is 10-0.0005 μM prepared in 3-fold serial dilutions. Incubate for 72 hr at 37 degree Celsius in 5% CO2 humidified incubator. • 3. Add 0.0125 ml Alamar Blue™ reagent to each well with multi-channel pipette and tap gently on each side of the plate to mix. Incubate for 3 hours at 37 degree Celsius in 5% CO2 humidified incubator. • 4. […] Data analysis was performed using XLfit 5.5.0.5.

GI50 [nM]	SMILES
12	C=CC(=O)Nc1cccc(Nc2nc(Nc3cnn(C)c3)ncc2-c2ccc(OC)c(F)c2)c1 [Compound 69, N-(3-((5-(3-fluoro-4-methoxyphenyl)-2-((1-methyl-1H-pyrazol-4-yl)amino)pyrimidin-4-yl)amino)phenyl)acrylamide]
33	C=CC(=O)Nc1ccc(F)c(Nc2nc(Nc3cnn(C4COC4)c3)ncc2-c2ccc(Br)c(F)c2)c1 [Compound 94, N-(3-((5-(4-bromo-3-fluorophenyl)-2-((1-(oxetan-3-yl)-1H-pyrazol-4-yl)amino)pyrimidin-4-yl)amino)-4-fluorophenyl)acrylamide]
12	C=CC(=O)Nc1ccc(F)c(Nc2nc(Nc3cnn(C)c3)ncc2-c2ccc(Br)c(F)c2)c1 [Compound 87, N-(3-{[5-(4-bromo-3-fluorophenyl)-2-[(1-methyl-1H-pyrazol-4-yl)amino]pyrimidin-4-yl]amino}-4-fluorophenyl) prop-2-enamide]

The remaining lines, values behind:

SMILES	GI50 [nM]
C=CC(=O)Nc1ccc(F)c(Nc2nc(Nc3cnn(C)c3)ncc2-c2cc(F)c(C(F)(F)F)c(F)c2)c1 [Compound 20, N-(3-((5-(3,5-difluoro-4-(trifluoromethyl)phenyl)-2-((1-methyl-1H-pyrazol-4-yl)amino)pyrimidin-4-yl)amino)-4-fluorophenyl)acrylamide trifluoroacetate]	33
C=CC(=O)Nc1ccc(F)c(Nc2nc(Nc3cnn(C)c3)ncc2-c2cnc(Cl)c(C)c2)c1 [Compound 48, N-(3-((5-(6-chloro-5-methylpyridin-3-yl)-2-((1-methyl-1H-pyrazol-4-yl)amino)pyrimidin-4-yl)amino)-4-fluorophenyl)acrylamide]	12
C=CC(=O)Nc1ccc(F)c(Nc2nc(Nc3cnn(C)c3)ncc2-c2cnc(C(F)(F)F)c(F)c2)c1 [Compound 61, N-(4-fluoro-3-((5-(5-fluoro-6-(trifluoromethyl)pyridin-3-yl)-2-((l-methyl-1H-pyrazol-4-yl)amino)pyrimidin-4-yl)amino)phenyl)acrylamide]	12
C=CC(=O)Nc1ccc(F)c(Nc2nc(Nc3cnn(C)c3)ncc2-c2ccc(OC(F)(F)F)c(F)c2)c1 [Compound 14, N-(4-fluoro-3-((5-(3-fluoro-4-(trifluoromethoxy)phenyl)-2-((1-methyl-1H-pyrazol-4-yl)amino)pyrimidin-4-yl)amino)phenyl)acrylamide]	33
C=CC(=O)Nc1ccc(F)c(Nc2nc(Nc3cnn(C)c3)ncc2-c2cc(F)cc(Cl)c2)c1 [Compound 34, N-(3-((5-(3-chloro-5-fluorophenyl)-2-((1-methyl-1H-pyrazol-4-yl)amino)pyrimidin-4-yl)amino)-4-fluorophenyl)acrylamide]	33

Biological target: HER2 (A775_G776insYVMA) expressing Ba/F3 stable cell line (Homo sapiens, UniProt P04626, DUP772-775, cells depend on it)
Experiment: Cellular proliferation (Alamar Blue) assay, HER2 (A775_G776insYVMA) Ba/F3
Format: cell-based
Settings: 72 hr, read-out: YVMA IC50
Protocol: as §1, §2

GI50 [nM]	SMILES
35	C=CC(=O)Nc1cccc(Nc2nc(Nc3cnn(C)c3)ncc2-c2ccc(Cl)c(F)c2)c1 [Compound 68, N-(3-((5-(4-chloro-3-fluorophenyl)-2-((1-methyl-1H-pyrazol-4-yl)amino)pyrimidin-4-yl)amino)phenyl)acrylamide]

Biological target: EGFR (H773insNPH) expressing Ba/F3 stable cell line (Homo sapiens, UniProt P00533, DUP771-773, cells depend on it)
Experiment: Cellular proliferation (Alamar Blue) assay, EGFR (H773insNPH) Ba/F3
Format: cell-based
Settings: 72 hr, read-out: NPH IC50
Protocol: as §1, §2

GI50 [nM]	SMILES
33	C=CC(=O)Nc1ccc(F)c(Nc2nc(Nc3cnn(C)c3)ncc2-c2cnc(Cl)c(C(F)(F)F)c2)c1 [Compound 44, N-(3-((5-(6-chloro-5-(trifluoromethyl)pyridin-3-yl)-2-((1-methyl-1H-pyrazol-4-yl)amino)pyrimidin-4-yl)amino)-4-fluorophenyl)acrylamidet]
33	C=CC(=O)Nc1ccc(F)c(Nc2nc(Nc3cnn(C)c3)ncc2-c2cnc(C(F)(F)F)c(F)c2)c1 [Compound 61, N-(4-fluoro-3-((5-(5-fluoro-6-(trifluoromethyl)pyridin-3-yl)-2-((l-methyl-1H-pyrazol-4-yl)amino)pyrimidin-4-yl)amino)phenyl)acrylamide]
33	C=CC(=O)Nc1ccc(F)c(Nc2nc(Nc3cnn(C)c3)ncc2-c2cnc(F)c(F)c2)c1 [Compound 29, N-(3-((5-(5,6-difluoropyridin-3-yl)-2-((1-methyl-1H-pyrazol-4-yl)amino)pyrimidin-4-yl)amino)-4-fluorophenyl)acrylamide]

Biological target: EGFR (A767_dupASV) expressing Ba/F3 stable cell line (Homo sapiens, UniProt P00533, DUP767-769, cells depend on it)
Experiment: Cellular proliferation (Alamar Blue) assay, EGFR (A767_dupASV) Ba/F3
Format: cell-based
Settings: 72 hr, read-out: A767 IC50
Protocol: as §1, §2

GI50 [nM]	SMILES
12	O=C(O)C(F)(F)F.[2H]C([2H])([2H])n1cc(Nc2ncc(-c3cnc(F)c(F)c3)c(Nc3cc(NC(=O)C=C)ccc3F)n2)cn1 [Compound 101, N-(3-((5-(5,6-difluoropyridin-3-yl)-2-((1-(methyl-d3)-1H-pyrazol-4-yl)amino)pyrimidin-4-yl)amino)-4-fluorophenyl)acrylamide]
33	[2H]C([2H])([2H])n1cc(Nc2ncc(-c3ccc(Br)c(F)c3)c(Nc3cc(NC(=O)C=C)ccc3F)n2)cn1 [Compound 169, N-(3-((5-(4-bromo-3-fluorophenyl)-2-((1-(methyl-d3)-1H-pyrazol-4-yl)amino)pyrimidin-4-yl)amino)-4-fluorophenyl)acrylamide]
33	C=CC(=O)Nc1cccc(Nc2nc(Nc3cnn(C)c3)ncc2-c2cc(F)c(F)c(F)c2)c1 [Compound 148, N-(3-((2-((1-methyl-1H-pyrazol-4-yl)amino)-5-(3,4,5-trifluorophenyl)pyrimidin-4-yl)amino)phenyl)acrylamide]
33	C=CC(=O)Nc1ccc(F)c(Nc2nc(Nc3cnn(C)c3)ncc2-c2ccc(Br)c(F)c2)c1 [Compound 87, N-(3-{[5-(4-bromo-3-fluorophenyl)-2-[(1-methyl-1H-pyrazol-4-yl)amino]pyrimidin-4-yl]amino}-4-fluorophenyl) prop-2-enamide]

Second part, the molecule before the results:

SMILES	GI50 [nM]
C=CC(=O)Nc1cccc(Nc2nc(Nc3cnn(C)c3)ncc2-c2ccc(N(C)C)c(F)c2)c1 [Compound 30, N-(3-((5-(4-(dimethylamino)-3-fluorophenyl)-2-((1-methyl-1H-pyrazol-4-yl)amino)pyrimidin-4-yl)amino)phenyl)acrylamide]	33
C=CC(=O)Nc1ccc(F)c(Nc2nc(Nc3cnn(C)c3)ncc2-c2cnc(Cl)c(C)c2)c1 [Compound 48, N-(3-((5-(6-chloro-5-methylpyridin-3-yl)-2-((1-methyl-1H-pyrazol-4-yl)amino)pyrimidin-4-yl)amino)-4-fluorophenyl)acrylamide]	12
